From ChEMBL document CHEMBL3872279, “Design, synthesis and biological evaluation of novel 4-(2-fluorophenoxy)quinoline derivatives as selective c-Met inhibitors” (Bioorg Med Chem, 2017)

Sequences of proteins named here, by UniProt entry; tags and fusion partners are left off. A change or cut given only in a name is not applied to a line headed by its entry.
UniProt P08581: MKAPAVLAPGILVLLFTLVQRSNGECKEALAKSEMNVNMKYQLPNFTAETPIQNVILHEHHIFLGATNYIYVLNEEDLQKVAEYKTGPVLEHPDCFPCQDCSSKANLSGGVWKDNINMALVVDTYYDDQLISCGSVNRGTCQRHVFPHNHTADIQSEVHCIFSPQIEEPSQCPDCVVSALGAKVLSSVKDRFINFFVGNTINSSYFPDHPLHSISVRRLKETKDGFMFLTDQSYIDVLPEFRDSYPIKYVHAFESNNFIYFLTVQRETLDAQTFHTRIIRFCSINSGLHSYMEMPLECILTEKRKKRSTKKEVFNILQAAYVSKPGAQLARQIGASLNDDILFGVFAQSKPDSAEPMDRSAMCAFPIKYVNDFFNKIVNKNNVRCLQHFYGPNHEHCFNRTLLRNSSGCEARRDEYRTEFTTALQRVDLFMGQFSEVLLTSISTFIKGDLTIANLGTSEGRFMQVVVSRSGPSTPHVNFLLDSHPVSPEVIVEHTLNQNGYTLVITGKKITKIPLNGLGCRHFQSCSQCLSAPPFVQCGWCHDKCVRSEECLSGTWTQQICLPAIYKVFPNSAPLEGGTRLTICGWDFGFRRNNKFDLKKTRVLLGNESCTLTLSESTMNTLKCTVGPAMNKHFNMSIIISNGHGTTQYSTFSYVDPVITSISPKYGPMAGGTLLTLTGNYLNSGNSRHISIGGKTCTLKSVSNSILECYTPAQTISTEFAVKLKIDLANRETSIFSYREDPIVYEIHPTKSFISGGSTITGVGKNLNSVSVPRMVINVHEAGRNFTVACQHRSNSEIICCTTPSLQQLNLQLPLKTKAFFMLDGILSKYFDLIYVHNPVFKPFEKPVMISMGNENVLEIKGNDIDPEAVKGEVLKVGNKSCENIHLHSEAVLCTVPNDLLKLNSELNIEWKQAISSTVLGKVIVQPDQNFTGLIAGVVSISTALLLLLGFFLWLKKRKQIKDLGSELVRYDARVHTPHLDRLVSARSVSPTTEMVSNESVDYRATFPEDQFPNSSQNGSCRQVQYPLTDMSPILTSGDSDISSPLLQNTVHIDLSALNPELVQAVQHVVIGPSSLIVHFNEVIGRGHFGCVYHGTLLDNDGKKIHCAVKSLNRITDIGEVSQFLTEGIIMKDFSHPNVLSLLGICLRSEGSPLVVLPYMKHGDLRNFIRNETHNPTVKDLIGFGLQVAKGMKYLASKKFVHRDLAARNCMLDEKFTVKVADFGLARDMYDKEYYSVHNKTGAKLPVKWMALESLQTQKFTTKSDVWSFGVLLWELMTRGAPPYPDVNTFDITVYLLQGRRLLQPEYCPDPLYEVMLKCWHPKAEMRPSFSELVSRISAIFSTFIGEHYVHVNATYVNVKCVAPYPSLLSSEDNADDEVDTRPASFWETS

Target: Hepatocyte growth factor receptor (Homo sapiens, UniProt P08581)
Test: Potency index, ratio of foretinib IC50 to compound IC50 for c-MET (unknown origin)

- Ratio IC50: 1.3
Compound: COc1cc2c(Oc3ccc(NC(=O)c4cn(-c5ccccc5OC)cn4)cc3F)ccnc2cc1OCCCN1CCN(C)CC1
